Test results taken from US4863949A, “Aminopropanol derivatives, processes for the preparation thereof, the use thereof and pharmaceutical compositions containing them” (Boehringer Mannheim GmbH, priority 1985, dated 1989).

Test system: livers
Experiment: denitration rate in perfused rat livers relative to isosorbide-5-mononitrate (nitrate-like action)
Parameters: species or system rats
Conditions: rat livers perfused 4 min, equimolar 5×10^-5 M/l; freed NO2 in perfusate; high = fast denitration

## O=[N+]([O-])O[C@H]1CO[C@H]2[C@@H]1OC[C@H]2O[N+](=O)[O-]
  Vrel (denitration rate in relation to isosorbide-5-mononitrate): 17,5
